Data set [1] addresses OX1R (Homo sapiens, UniProt O43613). To be noted: as described in WO2013/187466; cited from earlier work.
The test system of data set [2] is human MDR1 P-gp. As to the kind of experiment: Assay D: efflux in MDCK cells transfected with the human MDR1 gene. In kind it is in vitro ADME, canine. To be noted: dog; MDCK-MDR1 monolayers, pH 7.4, 37° C.; read-out: MDCK efflux ratio (BA/AB). As for the experimental part: The MDCK assay provides information on the potential of a compound to pass the blood brain barrier. Permeability measurements across polarized, confluent MDCK-MDR1 cell monolayers grown on permeable filter supports are used as an in vitro absorption model: apparent permeability coefficients (PE) of the compounds across the MDCK-MDR1 cell monolayers are measured (pH 7.4, 37° C.) in apical-to-basal (AB) and basal-to-apical (BA) transport direction. The AB permeability (PEAB) represents drug absorption from the blood into the brain and the BA permeability (PEBA) drug efflux from the brain back into the blood via both, passive permeability as well as active transport mechanisms mediated by efflux and uptake transporters that are expressed on the MDCK-MDR1 cells, predominantly by the overexpressed human MDR1 P-gp. Identical or similar permeabilities in both transport directions indicate passive permeation, vectorial permeability points to additional active transport mechanisms. Higher PEBA than PEAB (PEBA/PEAB>5) indicates the involvement of active efflux mediated by MDR1 P-gp, which might compromises the goal to achieve sufficient brain exposure. […]
Apparent permeability coefficients (PE) of the compounds across the MDCK-MDR1 cell monolayers are measured (pH 7.4, 37° C.) in apical-to-basal (AB) and basal-to-apical (BA) transport direction. […]

By UniProt entry, the sequences of proteins in these tests, tags left out.
UniProt O43613, whole entry, species assumed: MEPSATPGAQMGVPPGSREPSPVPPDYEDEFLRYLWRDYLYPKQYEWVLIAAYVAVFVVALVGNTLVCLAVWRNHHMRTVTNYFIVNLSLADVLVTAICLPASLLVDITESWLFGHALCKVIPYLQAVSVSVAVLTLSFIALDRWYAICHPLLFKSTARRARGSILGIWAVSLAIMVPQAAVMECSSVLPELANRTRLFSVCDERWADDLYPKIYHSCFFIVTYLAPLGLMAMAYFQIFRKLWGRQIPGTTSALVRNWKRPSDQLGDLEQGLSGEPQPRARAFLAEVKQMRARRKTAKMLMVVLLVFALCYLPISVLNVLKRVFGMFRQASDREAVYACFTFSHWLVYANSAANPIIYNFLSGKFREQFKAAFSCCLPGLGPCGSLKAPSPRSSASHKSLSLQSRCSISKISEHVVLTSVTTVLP

For `CCN(C(=O)c1cc(F)ccc1-c1ncccn1)[C@@H](C)Cn1nnc(-c2ccc(F)cc2)n1` [Example 70 in WO2013/187466, reference compound], the “OX2R IC50/OX1R IC50” value in data set [1] was 411. Besides, the efflux ratio in data set [2] amounted to 0.8.

Values taken from patent publication US9884854B2, “N-[(pyrimidinylamino)propanyl]-and N[(pyrazinylamino)proppanyl]arylcarboxamides” (Boehringer Ingelheim International GmbH, priority 2016, dated 2018).
